One compound from US9359338B2, “Cyclopropanecarboxamido-substitute aromatic compounds as anti-tumor agents” (Crown Bioscience Inc. (Taiwan), priority 2012, dated 2016) can be followed below.

By UniProt entry, the sequences of proteins in these tests, tags left out. Residues count along the entry.
UniProt P35968, 790-1356: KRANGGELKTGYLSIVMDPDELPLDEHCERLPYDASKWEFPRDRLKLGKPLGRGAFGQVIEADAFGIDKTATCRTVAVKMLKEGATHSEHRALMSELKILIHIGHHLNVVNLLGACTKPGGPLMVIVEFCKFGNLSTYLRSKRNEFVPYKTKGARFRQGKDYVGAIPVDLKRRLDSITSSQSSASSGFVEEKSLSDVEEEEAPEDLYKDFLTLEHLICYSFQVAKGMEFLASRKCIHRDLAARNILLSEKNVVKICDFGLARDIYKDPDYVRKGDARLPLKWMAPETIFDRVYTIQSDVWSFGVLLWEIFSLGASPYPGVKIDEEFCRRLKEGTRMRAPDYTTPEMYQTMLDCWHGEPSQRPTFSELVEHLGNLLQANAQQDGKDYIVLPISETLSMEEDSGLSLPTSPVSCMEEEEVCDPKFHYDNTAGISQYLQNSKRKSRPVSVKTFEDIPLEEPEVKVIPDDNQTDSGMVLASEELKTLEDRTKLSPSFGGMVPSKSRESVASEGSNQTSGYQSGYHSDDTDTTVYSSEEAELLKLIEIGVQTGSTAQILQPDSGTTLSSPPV

Each structure is given as a SMILES string.

One assay deals with pERK in MDA-MB-231 cells. Briefly: Inhibitory activity at pERK (In Cell Western, MDA-MB-231 cells). In kind it is cell-based. As to conditions: Homo sapiens, MDA-MB-231, MDA-MB-231 cells. The source says:
Inhibitory Activity of Compounds at pERK
• [Experimental method]: Use Acumen (TPP) to measure In Cell Western Blot results • [Instrument]: Acumen (TPP), Centrifuge (Thermo Scientific, Sorvall ST16R) • [Material]: MDA-MB-231 cells (ATCC), 96 well plate (BD, #356640), DMEM medium (Gibco, #11965-092), PBS (Invitrogen, #10010023), fetal bovine serum (Gibco, #16000044), BSA (Sigma, #A7030), DMSO (Sigma, #D2650); formaldehyde (Sinopharm), methanol (Sinopharm), 1^St antibody (anti-pERK antibody, Cell Signaling, #CST 4307s), 2nd antibody (FITC Donkey anti-rabbit IgG, Biolegend, #406403), Propidium Iodide (Invitrogen, #P3566), purified water (Millipore, type: Milli-Q). • [Protocol]: Grow MDA-MB-231 cells in DMEM medium (contains 10% FBS). When the cells reach 80% confluency, collect cells by trypsinization and centrifugation at 800 rpm for 3 minutes. Resuspend cells with appropriate volume of medium and count cell numbers. Adjust cell concentration to 70000 cells/mL, and split 100 μL cell suspension per well into 96-well plates. Transfer the plates into cell culture incubator (37° C., 5% CO2) and incubate cells overnight. […] Use Acumen (TPP) to measure the fluorescence. • [Samples]: Compounds in the examples and sorafenib (positive control) • [Data Analysis]: Use CBIS data analysis software to calculate IC50 values

For a further assay, the target named is KDR kinase (790-1356 AA) (Homo sapiens (Human), UniProt P35968). Kind of assay: Inhibitory activity at KDR kinase (Lance Ultra Ulight-TK assay). The class given is biochemical. How it is done: Inhibitory Activity of Compounds at KDR Kinase
• [Experimental method]: Use Lance@Ultra Ulight™-TK assay kit from PerKinElmer to evaluate the inhibitory activity of compounds at KDR kinase. • [Instrument]: PerKinElmer's ENVISION plate reader • [Materials]: Optiplate-384 well plate (PerKinElmer), kinase buffer (50 mM Hepes pH7.5, 0.25 mM EGTA, 2 mM DTT, 0.01% Tween 20, 10 mM Mg^2+, 0.5 mM Mn^2+), KDR kinase (790-1356 AA, Crown Bioscience), KDR kinase substrate (PerKinElmer catalogue # TRF0127-M), Lance@Eu-W1024-anti-phosphotyrosine (PT66) (PerKinElmer, catalogue #AD0068), ATP (Invitrogen), DMSO (Sigma, catalogue #34869), purified water (Millipore, type: Milli-Q). • [Study conditions]: Mix KDR (final concentration: 20 nM) and compound (final DMSO: 0.5%), pre-incubate for 20 min at 30° C.; then add ATP (final concentration: 90 μM) and the substrate (final concentration […]). React for 2 hrs at 30° C. After the reaction, add antibody and reaction for 60 min at 30° C. Read the plate (615 nm, 665 nm), calculate the ratio of the value at 665 nm vs 615 nm and analyze the data. • [Samples]: Compounds in the examples and Sorafenib (positive control) • [Data Analysis]: Use CBIS data analysis software to calculate IC50 values

Take `Cc1cc(Oc2cc(NC(=O)C3CC3)ncn2)ccc1NC(=O)Nc1cc(C2CCN(C)CC2)cc(C(F)(F)F)c1` [Exe. 073]: the concentration for half-maximal inhibition (IC50) in the assay with pERK in MDA-MB-231 cells and against KDR kinase (790-1356 AA) was 14 nM each time.

One may read the IC50 as the concentration at which inhibition is half-maximal. Low readings indicate greater potency in that assay, high ones weaker potency in that assay.
